Key:
[1] = target: T1, Diacylglycerol O-acyltransferase 2 (Homo sapiens, UniProt Q96PD7); assay: Inhibition of human DGAT2 assessed as reduction in synthesis of triglycerol in human hepatocyte using [14C]glycerol as substrate preincubated for 20 mins followed by substrate addition measured after 3.5 hrs by TLC method
T1 sequence (Q96PD7 whole entry): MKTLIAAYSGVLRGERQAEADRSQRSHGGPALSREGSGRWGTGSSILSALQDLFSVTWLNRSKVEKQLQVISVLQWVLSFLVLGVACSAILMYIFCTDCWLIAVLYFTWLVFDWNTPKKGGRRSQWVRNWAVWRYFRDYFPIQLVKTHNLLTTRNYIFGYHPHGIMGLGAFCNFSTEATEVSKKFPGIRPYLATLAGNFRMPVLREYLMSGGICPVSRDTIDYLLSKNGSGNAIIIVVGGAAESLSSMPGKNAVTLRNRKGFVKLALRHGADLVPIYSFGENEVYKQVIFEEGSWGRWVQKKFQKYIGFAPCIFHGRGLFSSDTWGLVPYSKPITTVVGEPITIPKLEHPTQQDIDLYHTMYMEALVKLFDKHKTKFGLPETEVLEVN

[2] = target: T1, Diacylglycerol O-acyltransferase 2; assay: Inhibition of human DGAT2 using [1-14C]decanoyl-CoA/1,2-didecanoyl-sn-glycerol as substrate preincubated for 120 mins followed by substrate addition measured after 40 mins by liquid scintillation counting method

`O=C([C@@H]1CCCN(c2ccc3nc(C4(n5cc(Cl)cn5)CC4)[nH]c3n2)C1)N1CCCC1` gave an IC50 [1] of 1.3 nM and an IC50 [2] of 14 nM.
